# Bioassay records from PubChem.
# An excerpt weighted towards active compounds, which were near 2.1% of everything screened.
# SMARCA2 act – increases SMARCA2 function in MMTV reporter cells; MG213 cells, MMTV-luciferase reporter, dexamethasone, overnight; activation, % at 9.1 µM; 370,000 tested, 1% active; AID 652017; in the data active = activation above about 7.8%;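 also: 0% = vehicle wells and 100% = reference activator wells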
# GSIS activator – GLuc luminescence reporter in INS-1E cells, primary screen for activators of glucose-dependent secretion of insulin. INS-1E GLuc reporter insulin secretion, 2-3 h. activation, % at 16.6 µM. 370,000 tested, 0.61% active. AID 743287;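 active = lowest replicate activation of at least 40%, so every replicate reaches that level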;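 also: 0% = median of neutral control wells and 100% = median of IBMX positive control wells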
# PDI turbidity – PDI (human) enzyme inhibition; P07237; PDI insulin aggregation turbidity, A650, 90 min; inhibition, % at 10 µM; 350,000 tested, 0.052% active; AID 588391;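 active = mean inhibition across replicates of 30% or more, whatever share of single replicates reach that level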
# ERp5 inh – ERp5 (human) disulfide isomerase inhibition; Q15084; ERp5 insulin aggregation, absorbance 650 nm, 90 min; inhibition, % at 9.99 µM; 350,000 tested, 0.05% active; AID 651711;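 active = mean replicate inhibition above about 25%, with every replicate also reaching it, limit read from the data, passing the limit was not always enough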
# Rev-erbA mod – Rev-erb alpha (human) modulation; P20393; Rev-erbα–FITC-DNA binding, fluorescence polarization, 90 min; activity, % at 10 µM; 370,000 tested, 0.79% active;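 active = activity above about 14%, limit read from the data; passing the limit was not always enough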;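 also: 0% = DMSO wells with 35 nM protein and 100% = DMSO wells with 750 nM protein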
# Yeast UUG start – modulators of start codon recognition fidelity in yeast; AID 602363; activity score, % at 18.7 µM; S. cerevisiae UUG-firefly luciferase reporter, luminescence/redox ratio; actives 0.13% (n = 350,000);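 active = replicate mean at a twofold rise or more, about +100% in these data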;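 note: firefly luciferase made from a UUG start codon reports start codon fidelity; reporter light over untreated wells divided by growth signal over untreated wells; some hits fall short of that in this replicate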
# SMARCA2 act conf – SMARCA2 activation, confirmation screen; activation, % at 9.1 µM; MG213 cells, MMTV-luciferase with dexamethasone, luminescence, overnight; MG213 cells expressing E1A, Rb sequestered; DMSO wells 0%, reference activator 100%; 3,500 tested, 30% active; shares compounds with SMARCA2 act;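 active = activation above its plate's cutoff, the mean activation of tested wells plus 3 SD, cut at about 7.9% in these data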
# GAL4-VP16 Luc – counter-screen for SMARCA2 activators: GAL4-VP16 luciferase reporter activation. shares compounds with SMARCA2 act. HEK293 GAL4-VP16 pG5luc reporter, luciferase luminescence; scaled: DMSO wells 0%, SAHA wells 100%. activation, % at 9.1 µM. 3,500 tested, 41% active;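 active = activation above the solvent-only control well mean plus 3 SD, averaged across control plates, cut at about 5.2% in these data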
# * marks the source's active call; other numbers are inactive results; nt = no result.
SMILES,SMARCA2 act,GSIS activator,PDI turbidity,ERp5 inh,Rev-erbA mod,Yeast UUG start,SMARCA2 act conf,GAL4-VP16 Luc
O=C(NCCC1=CCCCC1)NC1CCCCC1,8.7*,nt,2.5,nt,-3.6,-21.0,8.1*,8.7*
O=C(NCCc1ccccc1)NC1CCCCC1,11.1*,1.1,-9.2,nt,-3.2,-40.2,9.0*,7.7*
NC(=O)NCCC1=CCCCC1,-1.2,nt,-8.8,nt,6.1,-17.8,nt,nt
COc1ccccc1CN1C[C@@H](C)[C@@H](OC)CN(C)C(=O)c2cc(NC(C)=O)ccc2OC[C@H]1C,nt,3.1,nt,-1.8,nt,nt,nt,nt
O=C(Nc1cc(Br)ccc1O)c1cc(-c2cccs2)on1,9.8*,41.4,-13.8,1.9,0.8,-3.5,7.8,3.6
CC(C)c1cc(C(=O)Nc2cc(Br)ccc2O)no1,-0.8,1.2,-0.6,-2.7,-2.5,-8.7,nt,nt
COc1ccc(S(=O)(=O)Nc2ccc3c(c2)CC(=O)N([C@@H](C)CO)C[C@H](C)[C@H](CN(C)Cc2ccncc2)O3)cc1,nt,-0.2,nt,4.2,nt,1.2,nt,nt
COc1ccc(CNc2nc3ccccc3n2C(C)C)c(O)c1,-2.2,-31.8,0.4,-1.6,-1.5,-8.4,nt,nt
COc1ccc(CNc2nc3ccccc3n2C)c(OC)c1,8.0*,6.1,-3.0,3.3,2.9,nt,10.3*,10.3*
Cn1c(NCc2ccc(Cl)cc2)nc2ccccc21,8.3*,-7.7,-0.2,3.7,1.9,-16.5,8.3*,11.0*
COc1ccc(CNc2nc3ccccc3n2C)c(O)c1,8.1*,12.5,7.0,-8.2,-0.5,nt,9.3*,7.3*
CO[C@@H]1CN(C)C(=O)c2ccc(NC(C)=O)cc2OC[C@H](C)N(Cc2nccs2)C[C@@H]1C,nt,-6.0,nt,12.4,nt,-18.2,nt,nt
C[C@@H]1CCCCO[C@H](CN(C)Cc2ccc(C(=O)Nc3ccccc3N)cc2)[C@@H](C)CN([C@@H](C)CO)C(=O)c2cc(NS(=O)(=O)c3ccc(Cl)cc3)ccc2O1,nt,14.7,nt,-3.3,nt,13.8,nt,nt
CO[C@H]1CN(C)C(=O)c2ccc(NS(=O)(=O)c3ccccc3C)cc2OC[C@@H](C)N(C)C[C@@H]1C,nt,-1.0,nt,8.2,nt,nt,nt,nt
C[C@@H]1CCCCO[C@@H](CN(C)C(=O)CCC(F)(F)F)[C@@H](C)CN([C@@H](C)CO)C(=O)c2cc(NC(=O)c3ccccc3)ccc2O1,nt,-0.3,nt,-3.8,nt,50.4,nt,nt
CC(C)NC(=O)N(C)C[C@@H]1Oc2ccc(NC(=O)C3CCCCC3)cc2C(=O)N([C@@H](C)CO)C[C@H]1C,nt,5.2,nt,1.3,nt,1.6,nt,nt
COc1cccc(NC(=O)C[C@H]2CC[C@H]3[C@H](COc4ccc(NC(C)=O)cc4C(=O)N3C)O2)c1,nt,4.2,nt,-1.9,nt,-0.4,nt,nt
O=S(=O)(Cc1noc(-c2ccccc2Cl)n1)c1ccccn1,16.2*,2.2,-5.1,-4.4,4.0,nt,4.3,9.3*
C/C=C/c1ccc2c(c1)O[C@@H](CN(C)C(=O)NC(C)C)[C@H](C)CN([C@@H](C)CO)S2(=O)=O,nt,15.6,nt,9.6,nt,5.9,nt,nt
Cc1noc(C)c1NC(=O)N(C)C[C@H]1Oc2c(NC(=O)NC(C)C)cccc2C(=O)N([C@@H](C)CO)C[C@H]1C,nt,11.8,nt,2.5,nt,-10.1,nt,nt
CC(C)NC(=O)Nc1ccc2c(c1)CC(=O)N([C@@H](C)CO)C[C@@H](C)[C@H](CN(C)CC1CCCCC1)O2,nt,-4.3,nt,-2.8,nt,-8.4,nt,nt
COc1cc(N)c(Cl)cc1C(=O)OCC(=O)N1c2ccccc2NC(=O)C1(C)C,9.1*,-0.3,0.5,-3.1,1.4,1.7,-0.3,0.3
COc1ccc(S(N)(=O)=O)cc1C(=O)OCC(=O)N1c2ccccc2NC(=O)C1(C)C,-0.7,5.2,-4.4,7.2,-2.5,-0.8,nt,nt
Cc1ccc(O)c(C2=Nc3ccccc3N=C(c3cccc([N+](=O)[O-])c3)C2)c1,8.7*,4.9,-2.7,1.0,8.4,nt,0.5,1.1
O=C(Oc1c(CN2CCOCC2)cc(Cl)c2cccnc12)c1ccccc1Cl,19.4*,-11.8,0.5,-4.9,10.2,-35.6,-1.2,1.2
O=C(Oc1c(CN2CCOCC2)cc(Cl)c2cccnc12)c1cccs1,33.4*,-13.1,-1.4,17.7,-1.2,-64.5,15.7*,1.5
O=C(Oc1c(CN2CCOCC2)cc(Cl)c2cccnc12)c1ccc(F)cc1,5.6,nt,-5.1,nt,1.5,-11.5,nt,nt
O=C(Nc1ccc2nn(-c3ccccc3)nc2c1)c1cccnc1,3.3,nt,-12.7,nt,-3.8,-23.5,nt,nt
CC(C)C(=O)Nc1ccc2nn(-c3ccccc3)nc2c1,9.4*,-4.4,19.5,0.6,-8.2,-10.2,5.8,20.2*
Cc1oc(=O)c(NC(=O)c2cccc(Cl)c2)cc1C(=O)c1ccccc1,8.6*,-43.1,-3.8,1.3,2.9,-27.1,2.0,10.1*

# In another format: results already given.
molecule | SMARCA2 act | GSIS activator | PDI turbidity | ERp5 inh | Rev-erbA mod | Yeast UUG start | SMARCA2 act conf | GAL4-VP16 Luc
O=S(=O)(Cc1noc(-c2ccccc2Cl)n1)c1ccccn1 | 16.2* | 2.2 | -5.1 | -4.4 | 4.0 | nt | 4.3 | 9.3*
C/C=C/c1ccc2c(c1)O[C@@H](CN(C)C(=O)NC(C)C)[C@H](C)CN([C@@H](C)CO)S2(=O)=O | nt | 15.6 | nt | 9.6 | nt | 5.9 | nt | nt
Cc1noc(C)c1NC(=O)N(C)C[C@H]1Oc2c(NC(=O)NC(C)C)cccc2C(=O)N([C@@H](C)CO)C[C@H]1C | nt | 11.8 | nt | 2.5 | nt | -10.1 | nt | nt
CC(C)NC(=O)Nc1ccc2c(c1)CC(=O)N([C@@H](C)CO)C[C@@H](C)[C@H](CN(C)CC1CCCCC1)O2 | nt | -4.3 | nt | -2.8 | nt | -8.4 | nt | nt

# Continuation.
SMILES,SMARCA2 act,GSIS activator,PDI turbidity,ERp5 inh,Rev-erbA mod,Yeast UUG start,SMARCA2 act conf,GAL4-VP16 Luc
CCOC(=O)c1cnc(-c2ccccc2O)nc1Cl,8.1*,7.3,-5.7,-1.5,0.6,nt,3.7,3.9
N#Cc1ccc(Nc2nc(-c3ccccc3)cs2)cc1,2.4,-1.5,nt,2.1,0.1,-1.3,nt,nt
c1ccc(-c2csc(Nc3ccc4c(c3)OCO4)n2)cc1,11.3*,15.3,nt,0.9,11.2,-26.3,3.2,9.3*
Cc1noc(C)c1NC(=O)N(C)C[C@H]1OCCCC[C@H](C)Oc2ccc(NC(=O)c3ccccc3)cc2C(=O)N([C@H](C)CO)C[C@@H]1C,nt,-4.7,nt,2.2,nt,-7.4,nt,nt
COc1cccc2sc(Nc3nnc(-c4ccccc4Cl)o3)nc12,8.8*,5.0,-0.6,4.5,-3.6,-27.7,5.8,2.3
C/C(=N\NC(=O)c1nnn(-c2nonc2N)c1C)c1ccc(OCc2ccccc2)cc1,14.4*,-0.6,-3.2,0.1,5.0,-14.4,4.5,6.1*
COCc1c(C(=O)N/N=C(/C)c2ccc(OCc3ccccc3)cc2)nnn1-c1nonc1N,1.2,-2.6,-7.5,-3.3,-7.8,-15.1,nt,nt
Cn1ccc(NC(=O)c2ccc(Cl)cc2Cl)n1,8.6*,7.3,-5.0,-0.1,0.5,-21.1,5.5,10.4*
Cn1ccc(NC(=O)c2ccc(Cl)cc2)n1,-0.5,nt,4.4,-0.8,3.9,-6.8,nt,nt
CNc1nc(N)c([N+](=O)[O-])c(Nc2cccc(Cl)c2)n1,8.3*,nt,-5.1,6.2,-21.9,-15.4,4.7,1.7
O=C(CCN1CCCCC1)NCC[C@@H]1CC[C@H](NC(=O)C2CCCC2)[C@H](CO)O1,nt,-0.9,nt,-0.2,nt,8.6,nt,nt
CCN(CC)S(=O)(=O)c1ccc(C(=O)NNC(=O)c2cccs2)cc1,10.8*,-4.6,1.7,nt,0.9,-9.6,-0.8,1.7
CCN(CC)S(=O)(=O)c1ccc(NC(=O)c2cccs2)cc1,1.8,-7.2,-1.1,13.7,2.8,-7.2,nt,nt

# Shown with tabs: entries from further up
smiles	SMARCA2 act	GSIS activator	PDI turbidity	ERp5 inh	Rev-erbA mod	Yeast UUG start	SMARCA2 act conf	GAL4-VP16 Luc
COc1cccc2sc(Nc3nnc(-c4ccccc4Cl)o3)nc12	8.8*	5.0	-0.6	4.5	-3.6	-27.7	5.8	2.3
C/C(=N\NC(=O)c1nnn(-c2nonc2N)c1C)c1ccc(OCc2ccccc2)cc1	14.4*	-0.6	-3.2	0.1	5.0	-14.4	4.5	6.1*
